This test addresses T1, Prostaglandin E2 receptor EP3 subtype (Rattus norvegicus) (UniProt P34980).
T1 sequence (whole entry): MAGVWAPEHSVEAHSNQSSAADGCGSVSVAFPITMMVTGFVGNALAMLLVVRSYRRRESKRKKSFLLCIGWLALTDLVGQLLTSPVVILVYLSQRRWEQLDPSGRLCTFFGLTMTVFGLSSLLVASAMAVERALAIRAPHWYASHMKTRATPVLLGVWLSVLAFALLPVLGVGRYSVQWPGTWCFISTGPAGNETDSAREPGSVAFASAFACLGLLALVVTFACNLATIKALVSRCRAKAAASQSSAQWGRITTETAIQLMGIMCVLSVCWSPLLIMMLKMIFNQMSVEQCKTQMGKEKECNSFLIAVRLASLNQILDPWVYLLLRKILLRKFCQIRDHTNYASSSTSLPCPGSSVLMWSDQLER
Put plainly: Antagonist activity at EP3 in rat INS-1E cells assessed as reversal of sulprostone induced suppression of glucose-stimulated insulin secretion at 0.03 to 10 uM measured after 4 hrs by HTRF assay. The settings on record: filed as antagonist, dose 0.03-10 µM. It counts as cell-based. Background: Time-resolved FRET reads energy transfer from a long-lived donor to a nearby acceptor.

Calls of active or inactive are those of the source. The calls are words filed in the database; no cut-off is given here.

For `CC(C)C(/C=C1\OC(=O)NC1=O)c1ccc(-c2ccc3cccc(F)c3c2)[nH]c1=O` (stereo unspecified), the outcome was Active.
